Earlier results, collected in publication PMC7747014 (Journal of medicinal chemistry, 2015).

Protein sequences, listed by entry. Tags and fused reporters are not part of them.
UniProt Q9NUW8, whole entry: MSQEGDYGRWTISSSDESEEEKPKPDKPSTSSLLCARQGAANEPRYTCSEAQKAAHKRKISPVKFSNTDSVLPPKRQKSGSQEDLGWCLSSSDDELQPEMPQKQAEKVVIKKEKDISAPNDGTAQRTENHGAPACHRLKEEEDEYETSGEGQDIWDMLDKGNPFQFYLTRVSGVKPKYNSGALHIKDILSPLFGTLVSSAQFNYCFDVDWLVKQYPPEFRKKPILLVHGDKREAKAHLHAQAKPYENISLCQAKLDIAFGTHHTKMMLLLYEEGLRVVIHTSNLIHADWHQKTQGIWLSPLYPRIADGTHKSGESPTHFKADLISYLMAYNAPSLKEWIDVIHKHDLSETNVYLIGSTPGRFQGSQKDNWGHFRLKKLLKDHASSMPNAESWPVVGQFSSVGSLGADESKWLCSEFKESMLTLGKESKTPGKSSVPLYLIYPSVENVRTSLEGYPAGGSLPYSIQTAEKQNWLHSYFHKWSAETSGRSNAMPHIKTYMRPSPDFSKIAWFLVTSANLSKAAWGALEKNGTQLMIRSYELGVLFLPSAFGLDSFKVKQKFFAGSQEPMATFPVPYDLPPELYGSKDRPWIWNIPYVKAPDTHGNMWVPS

Biological target: recombinant TDP1 (Homo sapiens, UniProt Q9NUW8)
Details: read-out: TDP1 inhibition; semiquantitative IC50 scale; cited from earlier work

SMILES: COc1cccc2c1-c1c(c3ccc([N+](=O)[O-])cc3c(=O)n1CCCN)C2=O [Compound 4]
- IC50: 1 to 12 µM

SMILES: COc1ccc2c(c1)C(=O)c1c-2n(CCCN)c(=O)c2cc([N+](=O)[O-])ccc12 [Compound 5]
- IC50: 1 to 12 µM
